Measured values as given in patent US8791092B2 (priority 2009, dated 2014).

Test system: mouse overexpressing PS1(M146V), APP(Swe), and tau(P301L)
Test: Y-maze spatial memory in triple transgenic mouse model of AD
Conditions: miniosmotic pumps, 4 weeks, nine-month old mice

O=P(O)(O)Oc1c2c(c(OP(=O)(O)O)c3c1C1C[C@H]3c3cc4c(cc31)C1C[C@H]4c3ccccc31)[C@@H]1CC2c2cc3c(cc21)[C@@H]1CC3c2ccccc21 [TW1]
improvement in percent alternations (Y-maze) (500 μM TW1 subcutaneously): 21% | improvement in percent alternations (Y-maze) (1 mM TW1 subcutaneously): 16%
